Among the data in BindingDB's records for doi:10.1021/jm0002782 (Abbott Laboratories, 2000) are IC50 values, retold here.

A short description of this experiment: Evaluated for its ability to block the adherence of JY-8 cells to immobilized ICAM-1.

pIC50: −log10 of the molar value.

As for `CC(=O)N1CCN(C(=O)/C=C/c2ccc(Sc3ccccc3C(C)C)c([N+](=O)[O-])c2)CC1` [A-286982], the pIC50 is 7.46.

As a reminder, the pIC50 is the negative decadic logarithm of the IC50, by convention in mol/L. A high value points to a low IC50.
